# Source: patent publication US20130005644A1, “CYCLIC AGONISTS AND ANTAGONISTS OF C5A RECEPTORS AND G PROTEIN-COUPLED RECEPTORS” (PROMICS PTY LIMITED, priority 1997, published 2013)
# Read-outs that look alike come from different tables or passages of the source.
# How the values were obtained:
# [1] = biological target: T1, C5a receptor (Homo sapiens, UniProt P21730); conditions: isolated PMN membranes; Konteatis et al (1994); read-out: IC50, competition with C5a binding; cited from earlier work
# T1 construct: endogenous in cells; host or cells: fresh human polymorphonuclear leukocytes (PMNs), intact cells
# T1 sequence (P21730 1-350): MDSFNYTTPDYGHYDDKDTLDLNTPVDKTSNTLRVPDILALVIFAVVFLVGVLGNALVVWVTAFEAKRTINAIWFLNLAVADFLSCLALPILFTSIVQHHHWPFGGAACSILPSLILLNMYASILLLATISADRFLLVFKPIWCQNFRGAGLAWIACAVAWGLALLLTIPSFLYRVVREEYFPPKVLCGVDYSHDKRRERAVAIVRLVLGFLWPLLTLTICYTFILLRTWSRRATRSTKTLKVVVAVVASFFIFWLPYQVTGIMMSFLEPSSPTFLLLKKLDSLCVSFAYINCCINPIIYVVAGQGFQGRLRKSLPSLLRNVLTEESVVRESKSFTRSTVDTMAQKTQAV
# [2] = biological target: T1, C5a receptor; test: Myeloperoxidase release from human PMNs mediated by 100 nM C5a (antagonist potency); assay type: cell-based
"IC50 ([2]; 50% inhibition of C5a (100 nM)-caused release of MPO from PMNs, mean ± SE, read-out: pD2 ± SE (antagonist potency) (converted)) [nM]","IC50 ([2]; 50% reduction in myeloperoxidase secretion from human PMNs mediated by 100 nM C5a, read-out: Antagonist Potency IC50) [nM]",SMILES,IC50 [1] [nM]
–,–,"CN[C@@H](Cc1ccccc1)C(=O)N[C@@H](CCCCN)C(=O)N1CCC[C@H]1C(=O)N[C@H](CC1CCCCC1)C(=O)N[C@@H](Cc1c[nH]c2ccccc12)C(=O)N[C@H](CCCNC(=N)N)C(=O)O [Compound 7, N-methylphenylalanine-lysine-proline-D-cyclohexylalanine-tryptophan-D-arginine, reference compound]",70
85.1,90,"CC(=O)N[C@@H](Cc1ccccc1)C(=O)N[C@H]1CCCCNC(=O)[C@@H](CCCNC(=N)N)NC(=O)[C@H](Cc2c[nH]c3ccccc23)NC(=O)[C@@H](CC2CCCCC2)NC(=O)[C@@H]2CCCN2C1=O [Compound 11, Ac-F-[KP(dCha)Wr]",–
